Earlier results on one substance are cited in patent US5562894A, “Amino-acyl-type and catecholamine-type contrast agents for MRI” (Regents of the University of California, priority 1993, dated 1996).

For the data set the following is noted: in vivo; cited from earlier work.

As to Iron-dextran, the plasma half-life was 12 h.
